According to PubChem BioAssay (NCI):
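Exposure lasted 48 hours, with cells grown in 96-well plates and compounds tested at five concentrations. GI50 marks 50% less growth. TGI denotes the concentration required for complete inhibition of growth.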

Experiments:
Test in all cases: growth of human tumour cells (NCI), 48 h; in the data active = GI50 below about 0.43 µM; inactive = the rest
SR leukemia = tested on: SR leukemia
CCRF-CEM leukemia = tested on: CCRF-CEM leukemia
HT29 colon = tested on: HT29 colon
MOLT-4 leukemia = tested on: MOLT-4 leukemia
NCI-H23 lung = tested on: NCI-H23 lung
OVCAR-8 ovarian = tested on: OVCAR-8 ovarian
OVCAR-4 ovarian = tested on: OVCAR-4 ovarian
DU-145 prostate = tested on: DU-145 prostate
OVCAR-5 ovarian = tested on: OVCAR-5 ovarian
HL-60(TB) leukemia = tested on: HL-60(TB) leukemia
A498 renal = tested on: A498 renal
SK-MEL-5 melanoma = tested on: SK-MEL-5 melanoma
M14 melanoma = tested on: M14 melanoma
NCI/ADR-RES ovarian = tested on: NCI/ADR-RES ovarian
HOP-62 NSCLC = tested on: HOP-62 NSCLC
HS 578T breast = tested on: HS 578T breast
SK-OV-3 ovarian = tested on: SK-OV-3 ovarian
SW-620 colon = tested on: SW-620 colon
NCI-H460 lung = tested on: NCI-H460 lung
SNB-19 CNS = tested on: SNB-19 CNS
SK-MEL-2 melanoma = tested on: SK-MEL-2 melanoma
TK-10 renal = tested on: TK-10 renal
MCF7 breast = tested on: MCF7 breast
UACC-257 melanoma = tested on: UACC-257 melanoma
MDA-N = tested on: MDA-N
K-562 leukemia = tested on: K-562 leukemia
SN12C renal = tested on: SN12C renal
COLO 205 colon = tested on: COLO 205 colon
HOP-92 NSCLC = tested on: HOP-92 NSCLC
SK-MEL-28 melanoma = tested on: SK-MEL-28 melanoma
A549 NSCLC = tested on: A549 NSCLC
MDA-MB-231 breast = tested on: MDA-MB-231 breast
IGROV1 ovarian = tested on: IGROV1 ovarian
RPMI-8226 leukemia = tested on: RPMI-8226 leukemia
LOX IMVI melanoma = tested on: LOX IMVI melanoma
CAKI-1 renal = tested on: CAKI-1 renal
NCI-H522 lung = tested on: NCI-H522 lung
MDA-MB-435 = tested on: MDA-MB-435
HCT-15 colon = tested on: HCT-15 colon
OVCAR-3 ovarian = tested on: OVCAR-3 ovarian
NCI-H226 lung = tested on: NCI-H226 lung
T-47D breast = tested on: T-47D breast
UO-31 renal = tested on: UO-31 renal
HCT-116 colon = tested on: HCT-116 colon
SF-295 CNS = tested on: SF-295 CNS
ACHN renal = tested on: ACHN renal
U251 CNS = tested on: U251 CNS
PC-3 prostate = tested on: PC-3 prostate
HCC-2998 colon = tested on: HCC-2998 colon

C[S+](N)(=O)CCC(N)P(=O)(O)O.O=[N+]([O-])c1cc([N+](=O)[O-])c([O-])c([N+](=O)[O-])c1
65.2 µM: TGI (MDA-N)
inactive: GI50 (SR leukemia) > 100 µM | GI50 (CCRF-CEM leukemia) > 100 µM | GI50 (HT29 colon) > 100 µM | GI50 (MOLT-4 leukemia) > 100 µM | GI50 (NCI-H23 lung) > 100 µM | GI50 (OVCAR-8 ovarian) > 100 µM | GI50 (OVCAR-4 ovarian) > 100 µM | GI50 (DU-145 prostate) > 100 µM | GI50 (OVCAR-5 ovarian) > 100 µM | GI50 (HL-60(TB) leukemia) > 100 µM | GI50 (A498 renal) > 100 µM | GI50 (SK-MEL-5 melanoma) > 100 µM | GI50 (M14 melanoma) 70.8 µM | GI50 (NCI/ADR-RES ovarian) > 100 µM | GI50 (HOP-62 NSCLC) > 100 µM | GI50 (HS 578T breast) > 100 µM | GI50 (SK-OV-3 ovarian) > 100 µM | GI50 (SW-620 colon) > 100 µM | GI50 (NCI-H460 lung) > 100 µM | GI50 (SNB-19 CNS) > 100 µM | GI50 (SK-MEL-2 melanoma) > 100 µM | GI50 (TK-10 renal) > 100 µM | GI50 (MCF7 breast) > 100 µM | GI50 (UACC-257 melanoma) > 100 µM | GI50 (MDA-N) 24 µM | GI50 (K-562 leukemia) > 100 µM | GI50 (SN12C renal) > 100 µM | GI50 (COLO 205 colon) > 100 µM | GI50 (HOP-92 NSCLC) > 100 µM | GI50 (SK-MEL-28 melanoma) 73.5 µM | GI50 (A549 NSCLC) > 100 µM | GI50 (MDA-MB-231 breast) > 100 µM | GI50 (IGROV1 ovarian) > 100 µM | GI50 (RPMI-8226 leukemia) > 100 µM | GI50 (LOX IMVI melanoma) 39.8 µM | GI50 (CAKI-1 renal) > 100 µM | GI50 (NCI-H522 lung) 57.3 µM | GI50 (MDA-MB-435) 41.5 µM | GI50 (HCT-15 colon) > 100 µM | GI50 (OVCAR-3 ovarian) > 100 µM | GI50 (NCI-H226 lung) > 100 µM | GI50 (T-47D breast) > 100 µM | GI50 (UO-31 renal) > 100 µM | GI50 (HCT-116 colon) > 100 µM | GI50 (SF-295 CNS) > 100 µM | GI50 (ACHN renal) > 100 µM | GI50 (U251 CNS) > 100 µM | GI50 (PC-3 prostate) > 100 µM | GI50 (HCC-2998 colon) > 100 µM
> 100 µM: TGI (SR leukemia) | TGI (CCRF-CEM leukemia) | TGI (HT29 colon) | TGI (MOLT-4 leukemia) | TGI (NCI-H23 lung) | TGI (OVCAR-8 ovarian) | TGI (OVCAR-4 ovarian) | TGI (DU-145 prostate) | TGI (OVCAR-5 ovarian) | TGI (HL-60(TB) leukemia) | TGI (A498 renal) | TGI (SK-MEL-5 melanoma) | TGI (M14 melanoma) | TGI (NCI/ADR-RES ovarian) | TGI (HOP-62 NSCLC) | TGI (HS 578T breast) | TGI (SK-OV-3 ovarian) | TGI (SW-620 colon) | TGI (NCI-H460 lung) | TGI (SNB-19 CNS) | TGI (SK-MEL-2 melanoma) | TGI (TK-10 renal) | TGI (MCF7 breast) | TGI (UACC-257 melanoma) | TGI (K-562 leukemia) | TGI (SN12C renal) | TGI (COLO 205 colon) | TGI (HOP-92 NSCLC) | TGI (SK-MEL-28 melanoma) | TGI (A549 NSCLC) | TGI (MDA-MB-231 breast) | TGI (IGROV1 ovarian) | TGI (RPMI-8226 leukemia) | TGI (LOX IMVI melanoma) | TGI (CAKI-1 renal) | TGI (NCI-H522 lung) | TGI (MDA-MB-435) | TGI (HCT-15 colon) | TGI (OVCAR-3 ovarian) | TGI (NCI-H226 lung) | TGI (T-47D breast) | TGI (UO-31 renal) | TGI (HCT-116 colon) | TGI (SF-295 CNS) | TGI (ACHN renal) | TGI (U251 CNS) | TGI (PC-3 prostate) | TGI (HCC-2998 colon)
